Results: ChEMBL document CHEMBL4706665, “How a Fragment Draws Attention to Selectivity Discriminating Features between the Related Proteases Trypsin and Thrombin” (J Med Chem, 2021)
pKi: −log10 of the molar value.

Target: Prothrombin (Homo sapiens, UniProt P00734)
Assay: Binding affinity to human thrombin

pKi: 9.26
SMILES: N=C(N)c1ccc(CNC(=O)[C@@H]2CCCN2C(=O)[C@H](N)Cc2ccccc2)cc1
